From ChEMBL document CHEMBL5126633, “Developing HDAC4-Selective Protein Degraders To Investigate the Role of HDAC4 in Huntington's Disease Pathology” (J Med Chem, 2022)

Assay: Inhibition of class 2a HDAC in human Jurkat E6.1 cells using Boc-Lys(TFA)-AMC as substrate incubated for 24 hrs by plate reader assay
Assay type: cell-based
Details: Jurkat E6.1, 24 h

IC50: 24 nM
SMILES: CCCN(CCC)C[C@@H](C)NC(=O)c1ccc(-c2noc(C(F)(F)F)n2)cc1
